{"source": "ChEMBL document CHEMBL4014324", "about": "“Discovery of a Potent Nonpeptidomimetic, Small-Molecule Antagonist of Cellular Inhibitor of Apoptosis Protein 1 (cIAP1) and X-Linked Inhibitor of Apoptosis Protein (XIAP)” (J Med Chem, 2017)", "data": [{"species_on_record": "Homo sapiens", "assay": "Selectivity ratio of EC50 for full length FLAG-tagged XIAP (unknown origin) interaction with full length untagged caspase-9 expressed in HEK293 cells to EC50 for cIAP1 degradation in human MDA-MB-231 cells", "type": "cell-based", "values": [{"smiles": "C[C@@H]1CN(CC(=O)N2CC(C)(C)c3ncc(C(F)(F)c4ccccc4)cc32)[C@@H](CN2CCCC2=O)CN1", "Ratio EC50": 0.8}, {"smiles": "C[C@@H]1CN(CC(=O)N2CC(C)(C)c3ncc(Cc4ccc(F)cc4F)cc32)[C@@H](CN2CCCC2=O)CN1", "Ratio EC50": 28}, {"smiles": "CCCC(F)(F)c1cnc2c(c1)N(C(=O)CN1C[C@@H](C)NC[C@@H]1CN1CCCC1=O)CC2(C)C", "Ratio EC50": 1.3}]}]}
